Earlier results in US20220127568A1.

Settings: IV 50 mg; cited from earlier work

Q: With `Cc1cc(C)c(CNC(=O)c2cc(Br)c3c(c2C)O[C@](C)(C2CCC(N(C)C)CC2)O3)c(=O)[nH]1` (stereo partly shown) as the compound, how does the “oral bio. (remark in Human Dosage column)” value read?
A: The value was “poor oral”.
